Chains of the proteins cited; added tags and fusions are not shown. Residues count along the entry.
UniProt Q9UNQ0, whole entry: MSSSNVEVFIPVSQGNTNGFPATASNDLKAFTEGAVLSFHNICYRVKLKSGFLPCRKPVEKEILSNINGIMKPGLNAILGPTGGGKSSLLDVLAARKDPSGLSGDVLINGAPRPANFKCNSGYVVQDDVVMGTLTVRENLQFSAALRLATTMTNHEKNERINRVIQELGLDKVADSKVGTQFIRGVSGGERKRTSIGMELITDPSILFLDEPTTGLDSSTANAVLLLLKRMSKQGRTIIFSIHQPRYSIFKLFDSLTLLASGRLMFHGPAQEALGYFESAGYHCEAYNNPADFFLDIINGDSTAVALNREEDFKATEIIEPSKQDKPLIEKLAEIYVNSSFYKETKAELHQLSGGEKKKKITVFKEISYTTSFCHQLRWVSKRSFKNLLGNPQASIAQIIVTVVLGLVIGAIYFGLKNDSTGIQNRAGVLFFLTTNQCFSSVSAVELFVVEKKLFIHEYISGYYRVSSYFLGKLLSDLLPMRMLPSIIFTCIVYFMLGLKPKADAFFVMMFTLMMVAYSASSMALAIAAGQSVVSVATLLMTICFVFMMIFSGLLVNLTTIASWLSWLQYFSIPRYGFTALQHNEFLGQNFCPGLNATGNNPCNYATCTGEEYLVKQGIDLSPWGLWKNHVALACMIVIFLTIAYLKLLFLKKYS
UniProt P07333, 20-972 limits assumed: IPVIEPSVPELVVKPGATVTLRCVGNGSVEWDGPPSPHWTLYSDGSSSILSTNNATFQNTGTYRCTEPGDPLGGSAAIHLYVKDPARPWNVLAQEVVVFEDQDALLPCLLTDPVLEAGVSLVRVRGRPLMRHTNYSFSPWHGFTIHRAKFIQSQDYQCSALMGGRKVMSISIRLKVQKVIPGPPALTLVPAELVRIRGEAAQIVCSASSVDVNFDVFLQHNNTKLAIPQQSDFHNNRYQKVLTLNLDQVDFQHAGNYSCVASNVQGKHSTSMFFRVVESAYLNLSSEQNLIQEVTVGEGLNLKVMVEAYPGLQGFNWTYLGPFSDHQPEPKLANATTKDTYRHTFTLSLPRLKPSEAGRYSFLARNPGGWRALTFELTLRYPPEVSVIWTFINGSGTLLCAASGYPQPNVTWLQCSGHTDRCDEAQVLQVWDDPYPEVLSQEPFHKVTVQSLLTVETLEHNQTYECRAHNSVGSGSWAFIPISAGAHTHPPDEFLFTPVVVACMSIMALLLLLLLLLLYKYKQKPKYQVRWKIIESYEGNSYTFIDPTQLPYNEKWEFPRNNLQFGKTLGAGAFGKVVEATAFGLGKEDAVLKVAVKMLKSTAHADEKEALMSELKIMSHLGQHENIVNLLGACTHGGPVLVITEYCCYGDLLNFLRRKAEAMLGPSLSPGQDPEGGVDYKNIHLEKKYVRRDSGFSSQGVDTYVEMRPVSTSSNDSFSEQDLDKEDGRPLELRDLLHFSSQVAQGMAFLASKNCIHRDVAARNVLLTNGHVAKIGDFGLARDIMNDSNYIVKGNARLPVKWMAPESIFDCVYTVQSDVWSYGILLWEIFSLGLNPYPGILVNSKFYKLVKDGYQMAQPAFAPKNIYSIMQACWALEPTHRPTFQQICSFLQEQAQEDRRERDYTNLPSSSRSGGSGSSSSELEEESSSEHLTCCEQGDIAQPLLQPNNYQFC
UniProt P16234, 24-1089 limits assumed: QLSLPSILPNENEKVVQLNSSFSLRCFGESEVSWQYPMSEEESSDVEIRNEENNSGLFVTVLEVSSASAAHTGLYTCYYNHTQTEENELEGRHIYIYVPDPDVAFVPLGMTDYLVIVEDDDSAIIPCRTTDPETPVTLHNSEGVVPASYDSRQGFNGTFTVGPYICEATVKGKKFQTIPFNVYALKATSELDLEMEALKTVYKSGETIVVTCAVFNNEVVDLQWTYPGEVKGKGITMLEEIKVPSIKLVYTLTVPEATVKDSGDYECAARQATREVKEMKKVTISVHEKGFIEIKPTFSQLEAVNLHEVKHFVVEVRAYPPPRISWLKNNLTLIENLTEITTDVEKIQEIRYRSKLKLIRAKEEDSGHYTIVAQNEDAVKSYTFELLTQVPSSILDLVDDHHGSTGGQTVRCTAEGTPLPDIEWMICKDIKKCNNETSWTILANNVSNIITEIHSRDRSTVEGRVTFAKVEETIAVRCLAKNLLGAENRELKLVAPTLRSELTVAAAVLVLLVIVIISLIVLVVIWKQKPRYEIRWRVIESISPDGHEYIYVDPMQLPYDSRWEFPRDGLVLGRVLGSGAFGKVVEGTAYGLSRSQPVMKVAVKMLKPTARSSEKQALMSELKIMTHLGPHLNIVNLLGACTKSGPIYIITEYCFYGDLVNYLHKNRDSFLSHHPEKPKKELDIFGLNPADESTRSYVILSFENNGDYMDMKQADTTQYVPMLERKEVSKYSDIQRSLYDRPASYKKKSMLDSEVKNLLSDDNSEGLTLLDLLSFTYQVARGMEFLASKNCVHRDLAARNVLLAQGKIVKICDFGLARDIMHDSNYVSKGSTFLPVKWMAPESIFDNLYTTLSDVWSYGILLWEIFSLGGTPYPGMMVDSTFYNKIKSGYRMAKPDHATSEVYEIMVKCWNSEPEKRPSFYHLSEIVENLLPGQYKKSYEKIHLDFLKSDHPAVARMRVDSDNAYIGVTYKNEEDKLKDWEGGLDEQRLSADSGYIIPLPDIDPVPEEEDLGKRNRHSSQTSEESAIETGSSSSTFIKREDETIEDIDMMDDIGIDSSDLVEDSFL
UniProt P10721, 26-976 limits assumed: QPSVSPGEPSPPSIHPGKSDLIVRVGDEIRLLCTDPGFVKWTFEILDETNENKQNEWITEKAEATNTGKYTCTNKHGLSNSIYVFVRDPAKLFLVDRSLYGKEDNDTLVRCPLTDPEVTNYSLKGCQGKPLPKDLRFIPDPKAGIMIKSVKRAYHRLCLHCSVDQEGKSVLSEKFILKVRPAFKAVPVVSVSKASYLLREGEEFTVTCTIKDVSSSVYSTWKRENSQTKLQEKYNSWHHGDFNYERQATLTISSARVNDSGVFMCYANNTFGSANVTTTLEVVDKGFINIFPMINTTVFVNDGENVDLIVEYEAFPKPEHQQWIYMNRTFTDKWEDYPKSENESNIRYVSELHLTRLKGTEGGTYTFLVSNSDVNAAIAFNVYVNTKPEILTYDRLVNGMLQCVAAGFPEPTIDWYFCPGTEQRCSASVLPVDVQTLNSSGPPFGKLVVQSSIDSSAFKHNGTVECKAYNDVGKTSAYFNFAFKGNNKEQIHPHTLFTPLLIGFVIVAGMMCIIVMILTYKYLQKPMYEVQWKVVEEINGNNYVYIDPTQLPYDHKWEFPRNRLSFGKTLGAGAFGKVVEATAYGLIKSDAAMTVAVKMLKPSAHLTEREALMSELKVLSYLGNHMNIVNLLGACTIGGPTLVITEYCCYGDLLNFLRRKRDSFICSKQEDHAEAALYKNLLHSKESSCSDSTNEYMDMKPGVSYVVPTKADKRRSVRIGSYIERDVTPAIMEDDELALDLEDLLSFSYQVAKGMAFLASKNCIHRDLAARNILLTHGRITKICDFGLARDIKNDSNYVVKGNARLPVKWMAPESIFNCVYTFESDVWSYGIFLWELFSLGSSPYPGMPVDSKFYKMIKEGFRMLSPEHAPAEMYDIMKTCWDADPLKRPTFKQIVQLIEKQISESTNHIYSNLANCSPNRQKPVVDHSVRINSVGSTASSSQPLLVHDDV
UniProt P08183, whole entry: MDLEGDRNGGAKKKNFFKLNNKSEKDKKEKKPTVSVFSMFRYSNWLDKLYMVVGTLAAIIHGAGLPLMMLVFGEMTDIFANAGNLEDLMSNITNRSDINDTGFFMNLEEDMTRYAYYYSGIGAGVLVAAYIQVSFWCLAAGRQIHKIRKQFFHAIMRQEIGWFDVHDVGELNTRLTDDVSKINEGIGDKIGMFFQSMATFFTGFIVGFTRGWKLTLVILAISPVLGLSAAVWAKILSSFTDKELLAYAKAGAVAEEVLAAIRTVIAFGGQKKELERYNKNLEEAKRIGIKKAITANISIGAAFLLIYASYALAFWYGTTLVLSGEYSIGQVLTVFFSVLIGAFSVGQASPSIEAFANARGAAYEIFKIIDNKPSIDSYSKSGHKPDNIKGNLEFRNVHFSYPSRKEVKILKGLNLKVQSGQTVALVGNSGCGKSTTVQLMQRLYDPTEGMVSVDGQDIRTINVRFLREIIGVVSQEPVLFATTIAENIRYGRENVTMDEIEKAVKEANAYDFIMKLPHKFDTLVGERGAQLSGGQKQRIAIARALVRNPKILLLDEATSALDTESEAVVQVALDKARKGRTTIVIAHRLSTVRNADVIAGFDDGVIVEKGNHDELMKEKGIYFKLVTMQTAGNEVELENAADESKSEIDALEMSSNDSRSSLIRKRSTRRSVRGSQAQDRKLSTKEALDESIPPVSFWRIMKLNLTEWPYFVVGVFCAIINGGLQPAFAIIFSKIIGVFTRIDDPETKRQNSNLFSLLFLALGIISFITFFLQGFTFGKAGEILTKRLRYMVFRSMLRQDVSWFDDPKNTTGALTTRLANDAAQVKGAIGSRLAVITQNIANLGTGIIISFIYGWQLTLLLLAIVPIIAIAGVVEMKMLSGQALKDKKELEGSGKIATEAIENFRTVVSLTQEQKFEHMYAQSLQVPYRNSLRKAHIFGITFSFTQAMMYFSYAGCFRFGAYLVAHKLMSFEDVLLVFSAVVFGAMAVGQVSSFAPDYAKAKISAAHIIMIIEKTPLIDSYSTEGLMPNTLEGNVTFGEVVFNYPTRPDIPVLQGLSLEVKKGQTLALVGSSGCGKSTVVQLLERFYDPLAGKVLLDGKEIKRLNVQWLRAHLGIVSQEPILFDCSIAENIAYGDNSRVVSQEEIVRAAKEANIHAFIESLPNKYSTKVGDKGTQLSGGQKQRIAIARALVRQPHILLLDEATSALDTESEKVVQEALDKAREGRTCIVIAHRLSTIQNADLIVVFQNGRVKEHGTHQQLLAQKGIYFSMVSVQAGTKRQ

In patent publication US20240254119A1 (THIRD HARMONIC BIO, INC., priority 2022, published 2024):

Columns and labels:
[1] = target: BCRP (BCRP-MDCKII monolayer) (Homo sapiens, UniProt Q9UNQ0); assay: MDCKII-BCRP bidirectional transport assay; conditions: for MDCK-BCRP: Papp A-B: apical to basolateral
CSF-1R [2] = target: T1, CSF-1R (Homo sapiens, UniProt P07333); assay: HTRF biochemical assay, CSF-1R; conditions: read-out: CSF-1R Biochemical IC50 avg, Table 4
PDGFRα [3] = target: T2, PDGFRα (Homo sapiens, UniProt P16234); assay: HTRF biochemical assay, PDGFRα; conditions: read-out: PDFGRα Biochemical IC50 avg, Table 4
Kinetic solubility assay = conditions: 50 mM PB (pH 7.4), shaken 24 hours at RT
wtKIT [4] = target: T3, wtKIT (Homo sapiens, UniProt P10721); assay: HTRF biochemical assay, wtKIT (phosphorylation of a peptide substrate); conditions: read-out: KIT Biochemical IC50 avg, Table 4
[5] = system: KIT phosphorylation in M-07e cells; assay: Cell-based KIT phosphorylation in M-07e cells by pKIT ELISA; conditions: read-out: M-07e pKIT IC50, SCF stimulation
PDGFRα [6] = target: T2, PDGFRα; assay: Caliper biochemical assay, PDGFRα; conditions: read-out: PDGFRα Biochemical Avg IC50, Table 6
Caco-2 cells = assay: Caco-2 permeability assay; conditions: for Caco-2: Papp A-B: Caco-2, apical to basolateral
CSF-1R [7] = target: T1, CSF-1R; assay: Caliper biochemical assay, CSF-1R; conditions: read-out: CSF-1R Biochemical IC50, Table 6
wtKIT [8] = target: T3, wtKIT; assay: Caliper biochemical assay, wtKIT; conditions: read-out: KIT Biochemical IC50 avg, Table 6
MDR1 (MDR1-MDCKII cells) = MDR1 (MDR1-MDCKII cells) (Homo sapiens, UniProt P08183); assay: Permeability in MDR1-MDCKII cells; conditions: for MDCKII-MDR1: Papp A-B: MDCKII-MDR1, apical to basolateral
CYP3A4 = assay: Hepatocyte CYP induction assay, CYP3A4 gene expression; conditions: human hepatocytes
[9] = Three time point assay for plasma, brain and testes distribution after oral dosing; conditions: rat, time point 2 h

In the case of `Cc1ccc(-c2noc(COC3CC(F)(F)C3(F)F)n2)cc1NC(=O)c1cnc2ccccn12` (centres unmarked), the MDCK-BCRP: Efflux Ratio [1] is reported as 1.28, the “MDCK-BCRP: Papp A-B” value [1] is reported as 15.5 10^−6 cm/s and the IC50 (CSF-1R [2]) is reported as 50 to 500 nM. The IC50 (PDGFRα [3]) was 50 to 500 nM, the “Solubility (μM)” value (Kinetic solubility assay) was “**** (a solubility less than or equal to 2 μM)” and the IC50 (wtKIT [4]) was under 50 nM. It also gave an IC50 [5] of under 50 nM.

In the case of `Cc1ccc(-c2noc([C@H]3C[C@@H]3F)n2)cc1NC(=O)c1cnc2cc(C3COC3)ccn12`, the IC50 (PDGFRα [6]) is reported as 500 to 5000 nM, the Caco-2: Efflux Ratio (Caco-2 cells) is reported as 2.85 and the “Caco-2: Papp A-B” value (Caco-2 cells) is reported as 8.17 10^−6 cm/s. For the same compound, the MDCK-BCRP: Efflux Ratio [1] was 7.82, the “MDCK-BCRP: Papp A-B” value [1] was 4.44 10^−6 cm/s and the IC50 (CSF-1R [7]) was 50 to 500 nM. The “Solubility (μM)” value (Kinetic solubility assay) was “** (a solubility greater than 10 μM and less than or equal to 50 μM)”, the IC50 [5] was under 50 nM and the IC50 (wtKIT [8]) was under 50 nM. For the same compound, the MDCKII-MDR1: Efflux Ratio (MDR1 (MDR1-MDCKII cells)) was 1.45 and the “MDCKII-MDR1: Papp A-B” value (MDR1 (MDR1-MDCKII cells)) was 11.7 10^−6 cm/s.

With `Cc1ccc(-c2noc(C(F)C(C)O)n2)cc1NC(=O)c1cnc2ccccn12` (centres unmarked) the IC50 (CSF-1R [2]) was 50 to 500 nM, the IC50 (PDGFRα [3]) was 50 to 500 nM and the “Solubility (μM)” value (Kinetic solubility assay) was “* (a solubility greater than 50 μM)”. For the same compound, the IC50 (wtKIT [4]) was 50 to 500 nM and the IC50 [5] was under 50 nM.

With `Cc1ccc(-c2noc(C3CC3C#N)n2)cc1NC(=O)c1cnc2ccccn12` (centres unmarked) the Caco-2: Efflux Ratio (Caco-2 cells) was 2.02, the “Caco-2: Papp A-B” value (Caco-2 cells) was 15.2 10^−6 cm/s and the “CYP 3A4 induction mRNA: Mean fold at 10 μM” value (CYP3A4; donor one) was “+++ (induction fold of greater than 3-fold to less than or equal to 10-fold)”. For the same compound, the MDCK-BCRP: Efflux Ratio [1] was 4.48, the “MDCK-BCRP: Papp A-B” value [1] was 4.51 10^−6 cm/s and the “Solubility (μM)” value (Kinetic solubility assay) was “*** (a solubility greater than 2 μM and less than or equal to 10 μM)”. It also gave an IC50 (wtKIT [4]) of under 50 nM, an IC50 [5] of under 50 nM and a Brain concentration [9] of 845 ng/g. It also gave a Kp brain/plasma [9] of 0.23, a Kp testes/plasma [9] of 0.47 and a Plasma concentration [9] of 3680 ng/mL. The Testes concentration [9] was 1740 ng/g and the IC50 (wtKIT [8]) was under 50 nM.

For `CCCS(=O)(=O)N1CC[C@@H]1c1nc(-c2ccc(Cl)c(NC(=O)c3cnc4ccccn34)c2)no1`, the IC50 (PDGFRα [6]) was 500 to 5000 nM, the Caco-2: Efflux Ratio (Caco-2 cells) was 0.67 and the “Caco-2: Papp A-B” value (Caco-2 cells) was 12.6 10^−6 cm/s. The IC50 (CSF-1R [7]) was 50 to 500 nM, the “Solubility (μM)” value (Kinetic solubility assay) was “* (a solubility greater than 50 μM)” and the IC50 [5] was 50 to 500 nM. The IC50 (wtKIT [8]) was under 50 nM, the MDCKII-MDR1: Efflux Ratio (MDR1 (MDR1-MDCKII cells)) was 0.63 and the “MDCKII-MDR1: Papp A-B” value (MDR1 (MDR1-MDCKII cells)) was 16.2 10^−6 cm/s.

In the case of `COc1ccn2c(C(=O)Nc3cc(-c4noc(CC5CC5(F)F)n4)ccc3C)cnc2c1` (racemic), the MDCK-BCRP: Efflux Ratio [1] is reported as 1.64, the “MDCK-BCRP: Papp A-B” value [1] is reported as 2.89 10^−6 cm/s and the IC50 (CSF-1R [2]) is reported as under 50 nM. The IC50 (PDGFRα [3]) was 50 to 500 nM, the “Solubility (μM)” value (Kinetic solubility assay) was “**** (a solubility less than or equal to 2 μM)” and the IC50 (wtKIT [4]) was under 50 nM. For the same compound, the IC50 [5] was under 50 nM.

In the case of `COc1ccc2ncc(C(=O)Nc3cc(-c4noc([C@H]5C[C@@H]5F)n4)ccc3C)n2c1`, the IC50 (PDGFRα [6]) is reported as 500 to 5000 nM, the “CYP 3A4 induction mRNA: Mean fold at 10 μM” value (CYP3A4; donor two) is reported as “+++ (induction fold of greater than 3-fold to less than or equal to 10-fold)” and the IC50 (CSF-1R [7]) is reported as under 50 nM. The “Solubility (μM)” value (Kinetic solubility assay) was “*** (a solubility greater than 2 μM and less than or equal to 10 μM)”, the IC50 [5] was under 50 nM and the IC50 (wtKIT [8]) was under 50 nM.

With `Cc1ccc(-c2noc([C@H]3CC(F)(F)CN3)n2)cc1NC(=O)c1cnc2cc(COCCO)ccn12` the IC50 (CSF-1R [2]) was 50 to 500 nM, the IC50 (PDGFRα [3]) was 50 to 500 nM and the “Solubility (μM)” value (Kinetic solubility assay) was “* (a solubility greater than 50 μM)”. For the same compound, the IC50 (wtKIT [4]) was under 50 nM and the IC50 [5] was under 50 nM.

For `Cc1ccc(-c2noc(CC(C)O)n2)cc1NC(=O)c1cnc2ccccn12` (single isomer, unassigned) [I-256], the IC50 (PDGFRα [6]) was 5000 to 30000 nM, the “CYP 3A4 induction mRNA: Mean fold at 10 μM” value (CYP3A4; donor two) was “+ (induction fold of less than or equal to 2-fold)” and the MDCK-BCRP: Efflux Ratio [1] was 9.12. The “MDCK-BCRP: Papp A-B” value [1] was 3.76 10^−6 cm/s, the IC50 (CSF-1R [7]) was 50 to 500 nM and the “Solubility (μM)” value (Kinetic solubility assay) was “* (a solubility greater than 50 μM)”. The IC50 (wtKIT [4]) was 50 to 500 nM, the Brain concentration [9] was 105 ng/g and the Kp brain/plasma [9] was 0.06. For the same compound, the Kp testes/plasma [9] was 0.25, the Plasma concentration [9] was 1880 ng/mL and the Testes concentration [9] was 477 ng/g. It also gave an IC50 (wtKIT [8]) of under 50 nM.

For `Cc1ccc(-c2noc(C[C@H](C)O)n2)cc1NC(=O)c1cnc2ccccn12`, the IC50 (PDGFRα [6]) was 500 to 5000 nM, the Caco-2: Efflux Ratio (Caco-2 cells) was 1.8 and the “Caco-2: Papp A-B” value (Caco-2 cells) was 6 10^−6 cm/s. For the same compound, the MDCK-BCRP: Efflux Ratio [1] was 10.7, the “MDCK-BCRP: Papp A-B” value [1] was 3.33 10^−6 cm/s and the IC50 (CSF-1R [7]) was 50 to 500 nM. For the same compound, the IC50 [5] was under 50 nM, the IC50 (wtKIT [8]) was under 50 nM and the MDCKII-MDR1: Efflux Ratio (MDR1 (MDR1-MDCKII cells)) was 1.83. For the same compound, the “MDCKII-MDR1: Papp A-B” value (MDR1 (MDR1-MDCKII cells)) was 15.3 10^−6 cm/s.

In the case of `Cc1ccc(-c2noc([C@H]3C[C@@H]3F)n2)cc1NC(=O)c1cnc2cc(Cl)ccn12`, the IC50 (CSF-1R [2]) is reported as 50 to 500 nM, the IC50 (PDGFRα [3]) is reported as 50 to 500 nM and the “Solubility (μM)” value (Kinetic solubility assay) is reported as “**** (a solubility less than or equal to 2 μM)”. The IC50 (wtKIT [4]) was under 50 nM and the IC50 [5] was under 50 nM.
